The source of these data is ChEMBL document CHEMBL6083232, “A review on synthetic inhibitors of dual-specific tyrosine phosphorylation-regulated kinase 1A (DYRK1A) for the treatment of Alzheimer's disease (AD)” (Bioorg Med Chem, 2024).

Amino acid sequences for entries named in this document (tags omitted). A change or cut given only in a name is not applied to a line headed by its entry.
UniProt P49759: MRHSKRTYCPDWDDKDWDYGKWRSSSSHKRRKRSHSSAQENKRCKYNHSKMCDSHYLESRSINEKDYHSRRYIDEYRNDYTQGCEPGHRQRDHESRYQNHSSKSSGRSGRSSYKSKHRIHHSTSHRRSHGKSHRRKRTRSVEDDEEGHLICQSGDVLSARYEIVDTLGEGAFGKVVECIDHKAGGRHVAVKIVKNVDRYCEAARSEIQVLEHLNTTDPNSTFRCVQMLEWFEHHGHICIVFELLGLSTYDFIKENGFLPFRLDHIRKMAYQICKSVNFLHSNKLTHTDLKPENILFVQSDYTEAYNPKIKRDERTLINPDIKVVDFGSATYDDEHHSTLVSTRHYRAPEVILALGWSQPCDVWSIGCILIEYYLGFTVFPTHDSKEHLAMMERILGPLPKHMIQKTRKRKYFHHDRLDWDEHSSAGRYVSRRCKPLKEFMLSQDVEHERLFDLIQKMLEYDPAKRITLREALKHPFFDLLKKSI

The test concerns the target Dual specificity protein kinase CLK1 (Homo sapiens, UniProt P49759). The test can be described thus: Inhibition of CLK1 (unknown origin).

In general, IC50 refers to the concentration that inhibits the measured activity by half.

The molecule `O=C1NC(Nc2ccccc2)=N/C1=C\c1ccc2c(c1)OCO2` gave an IC50 of 35 nM.
